## Measured affinities in a library of Ab-95 light chain variants

The measurements come from Engelhart et al. 2022 (doi:10.1038/s41597-022-01779-4) through the FLAb antibody collection.

Antigen: PDVDLGDISGINAS, a 14-residue peptide of the SARS-CoV-2 spike HR2 region.

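Phage display of a naive human antibody library on the peptide gave the parent. The library (AAYL52) carries one to three amino acid substitutions per variant, with no insertions or deletions. In AlphaSeq, yeast of one mating type display the scFv and yeast of the other type display the target. The frequency of each diploid, read from paired DNA barcodes, reflects how well the two displayed proteins bind. Read counts were normalised to the haploid input and turned into Kd by a linear fit to BCL2-family pairs of known affinity, for each replicate. The assay was run in three technical replicates.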

Parent: Ab-95, a human scFv built as VH, the linker GGGGSGGGGSGGGGS, VL. Only the CDRs of the light chain vary.
VH: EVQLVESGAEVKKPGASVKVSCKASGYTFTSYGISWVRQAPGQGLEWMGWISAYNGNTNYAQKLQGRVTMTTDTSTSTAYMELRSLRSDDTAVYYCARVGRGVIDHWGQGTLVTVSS
VL: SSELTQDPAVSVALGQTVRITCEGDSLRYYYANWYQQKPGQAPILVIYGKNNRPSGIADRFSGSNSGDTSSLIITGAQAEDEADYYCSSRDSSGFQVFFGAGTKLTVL

Variants are written as CDR1, CDR2 and CDR3 of the light chain (limits as in the source). Parent: EGDSLRYYYAN, GKNNRPS, SSRDSSGFQVF. The Kd shown is the geometric mean over detected replicates; a lower Kd is a better binder. An entry "no signal" has no value in the source: the pair was not observed among the diploids in any replicate. This suggests poor binding but is not conclusive. As a blank, each scFv also met three strains without target: over library AAYL52, 28% of these pairings were detected, typically at 8.2 µM and seldom below 800 nM. For each scFv, signals with the empty controls are counted beside the result. Parent in this assay: reference entry 200 nM, copy in this library 180 nM.

CDR-L1 | CDR-L2 | CDR-L3 | apparent Kd | seen in | control signals
EGDSLRYYYAM | DKNNRES | SSRDSSGFQVF | no signal | 0 of 3 | 2 of 9
EGDSLNYYYAD | GKNNRPS | SSRDSHGFQVF | no signal | 0 of 3 | 0 of 9
EGDSCRYYYAN | GKWNRPS | SSRDSSGFQVF | 110 µM | 2 of 3 | 1 of 9
EGDSLRYYYAN | TKNNKPS | SSRDSSLFQVF | 15 µM | 3 of 3 | 2 of 9
EGDSLRYYYAE | GKNNRTS | SSRDSSGFPVF | 47 µM | 1 of 3 | 4 of 9
KGDSLRYYYAE | GKNNRPS | SSRDSSGFWVF | no signal | 0 of 3 | 1 of 9
EGDSLRYYYAP | GKPNRPS | SSRDSSGFQVF | 5.4 µM | 1 of 3 | 1 of 9
EGDTLRYLYAN | GKNNRPR | SSRDSSGFQVF | 3.5 µM | 3 of 3 | 0 of 9
EGDSLRYYYAN | VKNNRPS | SHGDSSGFQVF | 6.1 µM | 1 of 3 | 1 of 9
EGDSLRTYYAN | GKNNRPS | VSRDSSGFMVF | 960 nM | 3 of 3 | 5 of 9
EGDSLRYYYAN | GKNQRPS | SSRDSSESQVF | no signal | 0 of 3 | 0 of 9
EGPFLRYYYAN | GKNNRPS | SSRDESGFQVF | 2.9 µM | 3 of 3 | 0 of 9
CGDSLRTYYAN | GKNNRPS | SSRDSRGFQVF | 1.6 µM | 3 of 3 | 5 of 9
EGDSCRYYYAL | GKNNRPS | SSRDSSGFRVF | 2.7 µM | 2 of 3 | 2 of 9
EGDSLRYYYAN | GLANRPS | SSRDHSGFQVF | 21 µM | 2 of 3 | 2 of 9
EGDSNRYYYAN | GFGNRPS | SSRDSSGFQVF | 9.4 µM | 3 of 3 | 3 of 9
EGAWLRYYYAD | GKNNRPS | SSRDSSGFQVF | 83 µM | 1 of 3 | 2 of 9
EGNYLRYYYAN | GKNNRPS | SSRDSRGFQVF | 4.1 µM | 3 of 3 | 3 of 9
EQDSLIYYYAN | GKNNRPS | SSRDSSNFQVF | no signal | 0 of 3 | 0 of 9
EGCSLRYYYAI | GDNNRPS | SSRDSSGFQVF | 4.3 µM | 2 of 3 | 3 of 9
EGSSLRYAYAN | GKNNRPS | ASRDSSGFQVF | 43 nM | 3 of 3 | 0 of 9
EGDSLRYYYAG | GSNNRPS | SSRDSSGFQVM | 3.8 µM | 3 of 3 | 1 of 9
EGDCLRYYYAN | GKNFRPS | SSRDSLGFQVF | 660 nM | 3 of 3 | 4 of 9
LGDSLIYYYAN | GKNNRPS | SSRDSSGTQVF | 4.0 µM | 3 of 3 | 1 of 9
FGASLRYYYIN | GKNNRPS | SSRDSSGFQVF | 31 µM | 1 of 3 | 1 of 9
EGDVLRIYYAN | GKNNRPS | SSIDSSGFQVF | no signal | 0 of 3 | 1 of 9
EGDSLRYYYYN | GKNNRPS | SSRSSSGFQVF | 9.9 µM | 2 of 3 | 7 of 9
EGWSLRYYYAS | GKNNRPS | SSEDSSGFQVF | no signal | 0 of 3 | 0 of 9
EGDSLRYYYLN | GKNNRPS | KSWDSSGFQVF | no signal | 0 of 3 | 1 of 9
MGDSLRYYYAN | GKNNRPS | SSRDENGFQVF | 140 nM | 3 of 3 | 0 of 9
EGDSSRYYYAN | GKNNRSS | SSPDSSGFQVF | no signal | 0 of 3 | 3 of 9
EGDSLRYYYAN | GKNNRPV | HHRDSSGFQVF | 170 nM | 2 of 3 | 0 of 9
EGDSLRYYYAN | GDNNRPS | TSRDSSGFQWF | 160 nM | 3 of 3 | 4 of 9
EGDSLRYYYAN | GANNRPS | ASGDSSGFQVF | 880 nM | 3 of 3 | 7 of 9
ENDSLRYYYDN | GKNLRPS | SSRDSSGFQVF | 6.5 µM | 1 of 3 | 2 of 9
EGDSLRYYYAN | GKNNRPS | SSRDSRGFQLN | 2.3 µM | 2 of 3 | 3 of 9
EGDSLSYYYAN | SKYNRPS | SSRDSSGFQVF | 17 µM | 1 of 3 | 2 of 9
EGDSFRYYYAN | GKNNKPS | SSRDQSGFQVF | 1.7 µM | 3 of 3 | 5 of 9
EGTSLRYYYAN | GKNNTPW | SSRDSSGFQVF | 11 µM | 3 of 3 | 2 of 9
EGDSLRWYYAN | MKNNEPS | SSRDSSGFQVF | no signal | 0 of 3 | 1 of 9
EGDSLCYQYAN | GKNNRPS | SSRDSSLFQVF | 5.7 µM | 2 of 3 | 1 of 9
EGDWLRYYYAN | GKNNRPS | SSEDSSGFQVY | 11 µM | 3 of 3 | 3 of 9
EGDSLRYTYAN | GKNNRPS | SSRHSYGFQVF | 230 nM | 3 of 3 | 4 of 9
EMDSLRYYYAN | GHNNRPS | SSRDDSGFQVF | 120 nM | 3 of 3 | 2 of 9
QGDSLRYYYPN | GKNNRPS | SSRDLSGFQVF | 62 nM | 3 of 3 | 3 of 9
EGDALRPYYAN | GKNNRPS | SNRDSSGFQVF | 500 nM | 3 of 3 | 5 of 9

A selection of 7 entries from above:

CDR-L1 | CDR-L2 | CDR-L3 | apparent Kd | seen in | control signals
EGAWLRYYYAD | GKNNRPS | SSRDSSGFQVF | 83 µM | 1 of 3 | 2 of 9
EGDSLRYYYAM | DKNNRES | SSRDSSGFQVF | no signal | 0 of 3 | 2 of 9
EGDSLRYYYAE | GKNNRTS | SSRDSSGFPVF | 47 µM | 1 of 3 | 4 of 9
EGDSSRYYYAN | GKNNRSS | SSPDSSGFQVF | no signal | 0 of 3 | 3 of 9
EGDSLRYYYAN | GLANRPS | SSRDHSGFQVF | 21 µM | 2 of 3 | 2 of 9
KGDSLRYYYAE | GKNNRPS | SSRDSSGFWVF | no signal | 0 of 3 | 1 of 9
LGDSLIYYYAN | GKNNRPS | SSRDSSGTQVF | 4.0 µM | 3 of 3 | 1 of 9